Patent US20250100993A1, “2-SUBSTITUTED THIAZOLE HSD17B13 INHIBITORS AND USES THEREOF” (Inipharm, Inc., priority 2022, published 2025)

Protein sequences, listed by entry. Tags and fused reporters are not part of them. Residues count along the entry.
UniProt Q7Z5P4, 20-300 limits assumed: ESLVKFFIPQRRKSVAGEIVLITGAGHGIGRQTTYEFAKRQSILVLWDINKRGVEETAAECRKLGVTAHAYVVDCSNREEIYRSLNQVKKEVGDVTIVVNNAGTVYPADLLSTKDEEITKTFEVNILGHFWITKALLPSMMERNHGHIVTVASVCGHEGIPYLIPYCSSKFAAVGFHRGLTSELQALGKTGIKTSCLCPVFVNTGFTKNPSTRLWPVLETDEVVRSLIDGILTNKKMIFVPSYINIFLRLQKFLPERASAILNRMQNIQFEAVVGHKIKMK

Target: HSD17B13 (Homo sapiens (Human), UniProt Q7Z5P4)
Experiment: LC/MS estrone detection assay for HSD17B13 activity (estradiol to estrone)
Details: read-out: IC50 with Estradiol, estradiol substrate
Procedure: The liquid chromatography/mass spectrometry (LC/MS) estrone detection assay monitors the conversion of estradiol to estrone by HSD17B13. This assay was undertaken in a 96 wp format (Eppendorf deep well Plate 96/500) in an 80 μl reaction volume containing: 4 μM of Estradiol (E2; Cayman; Ser. No. 10/006,315), 6 mM NAD+(Sigma; #N0623) and 30 nM HSD17B13 enzyme (in-house; E. coli expressed His-tagged, purified, soluble protein) in a reaction containing 1M potassium phosphate buffer pH 7.4, with 0.5% vehicle (DMSO). Reactions were incubated for 2 hours at 26.5° C., and estradiol (E2) conversion to estrone (E1) was quantitated by LC-MS/MS based analyte detection for both E2 and E1 using LCMS grade reagents.
Reactions were terminated by the addition of two volumes of acetonitrile (MeCN; LCMS grade; CAS #75/05/8) containing deuterated (D4)-E1 used as internal standard (Clear Synth; #CS-T-54273; 500 ng/mL final concentration). […] Aqueous linearity for E2 and E1 were included for quantification.
Analysis of samples was undertaken on a XBridge BEH C18 column (Waters; #186003033) using 0.1% Diethyl Amine in MeCN (mobile phase A; DEA CAS #109-89-7) and 0.1% Diethyl Amine in milli-Q water (mobile phase B) in a 3 min gradient allowing 25% B. Analytes were detected in negative mode using MRM analysis, with E2 having a RT of 1.85 min and E1 having a RT of 2 min. […]

- IC50: 0.5 to 1 µM
Structure (SMILES): O=C(Nc1scnc1C(=O)NCc1ccc(C(F)(F)F)nc1)c1cc(Cl)c(O)c(Cl)n1
